By UniProt entry, the sequences of proteins in these tests, tags left out. Where a name states a change or a piece, a line headed by the entry shows the natural chain unless it says otherwise.
UniProt P14780: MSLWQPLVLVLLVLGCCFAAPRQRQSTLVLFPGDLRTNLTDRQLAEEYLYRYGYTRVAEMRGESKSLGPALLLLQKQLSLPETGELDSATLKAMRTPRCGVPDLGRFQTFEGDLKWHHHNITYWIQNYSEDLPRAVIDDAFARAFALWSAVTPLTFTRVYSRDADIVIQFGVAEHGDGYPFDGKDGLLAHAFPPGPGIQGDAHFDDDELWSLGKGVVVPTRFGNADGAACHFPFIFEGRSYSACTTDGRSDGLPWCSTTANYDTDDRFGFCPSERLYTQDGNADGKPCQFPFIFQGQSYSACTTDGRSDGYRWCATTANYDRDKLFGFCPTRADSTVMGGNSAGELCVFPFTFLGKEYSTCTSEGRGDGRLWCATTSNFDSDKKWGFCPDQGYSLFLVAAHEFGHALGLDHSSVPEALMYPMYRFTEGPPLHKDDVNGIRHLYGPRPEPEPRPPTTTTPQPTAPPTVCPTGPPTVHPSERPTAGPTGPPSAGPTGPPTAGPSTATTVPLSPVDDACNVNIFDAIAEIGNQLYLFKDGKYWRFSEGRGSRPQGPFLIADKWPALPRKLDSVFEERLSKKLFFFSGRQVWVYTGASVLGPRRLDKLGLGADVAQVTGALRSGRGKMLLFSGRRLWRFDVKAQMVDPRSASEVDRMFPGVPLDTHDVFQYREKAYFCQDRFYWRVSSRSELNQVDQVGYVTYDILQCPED

In ChEMBL document CHEMBL1133789, “The discovery of anthranilic acid-based MMP inhibitors. Part 1: SAR of the 3-position” (Bioorg Med Chem Lett, 2001):

What was measured:
[1] = molecular target: Matrix metalloproteinase-9 (Homo sapiens, UniProt P14780); experiment: Inhibitory activity against Matrix metalloprotease-9
[2] = molecular target: Collagenase 3 (Homo sapiens, UniProt P45452)

COc1ccc(S(=O)(=O)N(Cc2cccnc2)c2c(C)cccc2C(=O)NO)cc1
IC50 [1]: 5 nM | IC50 [2]: 8 nM
